Data from PubChem BioAssay AID1259423 (Fisher Drug Discovery Resource Center, 2018).
Several values for one entry are separate records, joined by “and”; a condition that tells them apart may be missing. Equal values may be shown once. Only a part is listed here, and it is no random draw. Activity calls are given as the source filed them. Rule as the data show it: active = activation above about 40%; inactive = the rest, inconclusive results apart.

These compounds were tested on Aedes aegypti neuropeptide Y-like receptor 7 (NPYLR7) (assay: agonists of mosquito NPYLR7 receptor, primary screen, cell-based, Aedes aegypti, calcium fluorescence, mosquito biting behavior (AID 1259423;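 also: 0% = vehicle and 100% = reference agonist at the receptor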)). Conditions: HEK293T NPYLR7/Galpha15, GCaMP6s calcium fluorescence; at 10 µM; hits give high values.
In the case of `COP1(=S)c2c(C)nn(-c3ccccc3)c2N=C(c2ccc(F)cc2)N1C` (stereo not drawn), the activation is reported as inactive: -2.87%. `COc1cc(Br)c([N+](=O)[O-])nc1[N+](=O)[O-]` was tested, and the activation was inactive: -3.8%. `CC(C)(C)NC1=NCC(CI)S1` (stereo not drawn) was tested, and the activation was inactive: -2.8%. With `O=C(O[C@H]1CN2CCC1CC2)C1NCc2ccccc2[C@@H]1c1ccccc1` (stereo partly drawn) the activation was inactive: -3.33%. `O=P(C=C(Cl)c1ccccc1)(C=C(Cl)c1ccccc1)Nc1nncs1` was tested, and the activation was inactive: -0.372%. `CCOP(OCC)N1CCOCC1` was tested, and the activation was inactive: -12.8%. With `CCN(CC)C1=NP(=O)(c2ccccc2)NC(c2ccccc2)=C1C#N` (stereo not drawn) the activation was inactive: 0.73%. In the case of `O=C(NC(Sc1ccncn1)C(Cl)(Cl)Cl)c1ccccc1` (stereo not drawn), the activation is reported as inactive: -12%. For `Cc1c2non([O-])c-2c(C)[n+](=O)[n+]1[O-]`, the activation was inactive: 0.392%. For `O=P(O)(O)F`, the activation was inactive: -6.88% and inactive: -5.33%. `CCOP1(=S)c2c(C)nn(-c3ccccc3)c2N=C(c2ccccc2F)N1C` (stereo not drawn) was tested, and the activation was inactive: -1.94%. For `O=P(Nc1nccs1)(c1ccc(Br)cc1)c1ccc(Br)cc1`, the activation was inactive: -1.25%. `COP(=O)(NS(=O)(=O)c1ccc(Cl)cc1)OC` was tested, and the activation was inactive: 1.73%. For `O=C(OC1CN2CCC1CC2)C1COc2ccccc2O1` (stereo not drawn), the activation was inactive: -0.808%. For `CCCCOP1(=S)N=C2c3ccccc3CN2c2cc(N(C)C)ccc21` (stereo not drawn), the activation was inactive: -2.52%. `Cc1ccc(NC(=O)COC(=O)C(C)(O)c2cccc(F)c2)c(C)c1` (stereo not drawn) was tested, and the activation was inactive: 5.43%. For `CCCCOP(=O)(OCCCC)N(CC)CC`, the activation was inactive: -10.7%. In the case of `CCOP1(=S)c2c(C)nn(-c3ccccc3)c2N=C(c2ccccc2)N1C1CC1` (stereo not drawn), the activation is reported as inactive: -6.17%. For `O=P(Nc1ccccn1)(c1ccc(Br)cc1)c1ccc(Br)cc1`, the activation was inactive: 6.79%. `CCOC(=O)NC(Sc1nc2ccccc2o1)C(Cl)(Cl)Cl` (stereo not drawn) was tested, and the activation was inactive: 3.66%. With `O=P(Nc1nccs1)(c1ccccc1)c1ccccc1` the activation was inactive: 7.23%. With `O=P1(Nc2nc(-c3ccc(F)cc3)cs2)C=C(c2ccccc2)OC(c2ccccc2)=C1` the activation was inactive: 2.34%. `CCC(C)C(=O)N1CCCC(C(=O)OC2CN3CCC2CC3)C1` (stereo not drawn) was tested, and the activation was inactive: 3.26%. For `O=P1(Nc2nncs2)C=C(c2ccccc2)SC(c2ccccc2)=C1`, the activation was inactive: 0.509%. `Cc1c([N+](=O)[O-])c([N+](=O)[O-])nn1CC(=O)Nc1ccc([N+](=O)[O-])cc1Cl` was tested, and the activation was inactive: -4.14%. For `CN(C)c1ccc2c(c1)N1Cc3ccccc3C1=NP2(=O)c1ccccc1` (stereo not drawn), the activation was inactive: -4.15%. In the case of `O=C(NC1CCS(=O)(=O)C1)NP(=S)(Oc1ccccc1)Oc1ccccc1` (stereo not drawn), the activation is reported as inactive: -2.67%. For `O=C(c1cccc([N+](=O)[O-])c1)c1ccc([N+](=O)[O-])c([N+](=O)[O-])c1`, the activation was inactive: -1.4%. For `CC[N+](CC)=C1SC2CS(=O)(=O)C(Br)C2(C)S1` (stereo not drawn), the activation was inactive: -7.62%. In the case of `O=C(OC1CN2CCC1CC2)c1ccccc1` (stereo not drawn), the activation is reported as inactive: -20.5%. In the case of `CC1CCC(C(C)C)C(OP(=O)(Nc2nccs2)c2ccccc2)C1` (stereo not drawn), the activation is reported as inactive: -2.66%. `CCOP1(=S)c2c(C)nn(CCC#N)c2N=C(c2ccccc2F)N1C` (stereo not drawn) was tested, and the activation was inactive: -6.55%. With `O=P(Nc1nccs1)(c1ccccc1)c1nc2ccccc2s1` (stereo not drawn) the activation was inactive: -2.35%. In the case of `COc1cccc(OP(=NC(=S)N2CCOCC2)(C(C)(C)C)C(C)(C)C)c1`, the activation is reported as inactive: 6.16%. With `CC(C)N(C(=O)C12CC3CC(C1)CC(P(=O)(Cl)Cl)(C3)C2)C(C)C` the activation was inactive: 2.03%. For `CN1c2ccccc2N2CC(C)(CI)SC12` (stereo not drawn), the activation was inactive: 1.29%. For `NC(=O)Nc1ccc([As](=O)(O)O)cc1`, the activation was inactive: -6.37%. In the case of `Cc1ccnc(NP2(=O)C=C(c3ccccc3)OC(c3ccccc3)=C2)c1`, the activation is reported as inactive: -5.4%. For `CN(C(=O)Cc1ccccc1)[C@@H]1CC[C@]2(CCCO2)C[C@H]1N1CCCC1`, the activation was inactive: -0.531%. With `CCOP1(=S)c2c(C)nn(-c3ccccc3)c2N=C(c2ccc(F)cc2)N1C` (stereo not drawn) the activation was inactive: -2%. `CN(C(=O)Cc1ccc(Cl)c(Cl)c1)[C@@H]1CC[C@]2(CCCO2)C[C@H]1N1CCCC1` was tested, and the activation was inactive: 2.75%. `COc1cc(-n2cnnn2)ccc1-n1cnnn1` was tested, and the activation was inactive: 5.17%. For `CN(CCCl)Cc1cc2cc(I)ccc2s1`, the activation was inactive: -5.3%. With `CN1C(=O)C2C(N=C(N3CCOCC3)N2CCc2ccccc2)N(C)C1=O` (stereo not drawn) the activation was inactive: -2.98%. With `Cc1ccc(NP(=O)(OCC(F)(F)F)OCC(F)(F)F)nc1` the activation was inactive: 8.06%. `CCOP(=O)(NC(=NC(C)c1ccccc1)NC(C)c1ccccc1)OCC` (stereo not drawn) was tested, and the activation was inactive: 1.74%. With `CN(CCCl)Cc1cc(Cl)c(NC2=NCCN2)c(Cl)c1` the activation was inactive: 7.36%. With `CC1CCC(C(C)C)C(OP(=O)(Nc2ccccn2)c2ccccc2)C1` (stereo not drawn) the activation was inactive: 2.68% and inactive: 2.4%. `Cc1n[n+]2c([nH]c1=O)SCC(Br)C2c1ccccc1` (stereo not drawn) was tested, and the activation was inactive: -3.79%. `BrC1CSc2nc3ccccc3n2C1c1ccccc1` (stereo not drawn) was tested, and the activation was inactive: 16.9%. In the case of `O=C1c2no[n+]([O-])c2C(=O)c2no[n+]([O-])c21`, the activation is reported as inactive: -8.92%. In the case of `O=[N+]([O-])c1ccc(-c2csc(NP3(=O)C=C(c4ccccc4)OC(c4ccccc4)=C3)n2)cc1`, the activation is reported as inactive: -5.51%. With `CCSP(=O)(c1ccccc1)c1ccccc1` the activation was inactive: 6.76%. With `CN1CC(=O)NC1=NP(=O)(OCc1ccccc1)OCc1ccccc1` the activation was inactive: -0.354%. For `N#Cc1ccc(-c2csc(NP3(=O)C=C(c4ccccc4)OC(c4ccccc4)=C3)n2)cc1`, the activation was inactive: 7.53%. `O=C(CBr)c1ccc([N+](=O)[O-])cc1` was tested, and the activation was inactive: 2.88%. In the case of `COP1(=S)c2c(C)nn(-c3ccccc3)c2N=C(c2ccccc2)N1C1CC1` (stereo not drawn), the activation is reported as inactive: -5.4%. With `O=C1OC2C3CC(CC13)C2SC(CCl)C(F)(F)F` (stereo not drawn) the activation was inactive: -0.513%. In the case of `COc1ccc2nc(NP(=O)(c3ccccc3)c3ccccc3)sc2c1`, the activation is reported as inactive: 2.02%. `CN(C)C1=C(c2c([N+](=O)[O-])cc([N+](=O)[O-])cc2[N+](=O)[O-])CCCC1` was tested, and the activation was inactive: -13.3%. `CCCOP(=O)(OCCC)O/C(C)=C/SC#N` was tested, and the activation was inactive: 1.76%. For `O=P(N=c1nc(-c2ccccc2)n(-c2ccccc2)s1)(N1CCOCC1)N1CCOCC1`, the activation was inactive: 0.798%. In the case of `N#CCOC(=O)C(O)(c1ccccc1)c1ccccc1`, the activation is reported as inactive: -2.72%. For `O=P1(Nc2nc(-c3ccccc3)cs2)C=C(c2ccccc2)OC(c2ccccc2)=C1`, the activation was inactive: 0.509%. With `Nc1nonc1OCCOc1nonc1N` the activation was inactive: -2.07%. With `CC(C)NC(=O)NP(=O)(Oc1ccccc1)Oc1ccccc1` the activation was inactive: 1.76%. In the case of `O=C(OC1CN2CCC1CC2)c1cccc2[nH]cnc12` (stereo not drawn), the activation is reported as inactive: 3.32%. With `COP1(=S)N=C2c3ccccc3CN2c2cc(N(C)C)ccc21` (stereo not drawn) the activation was inactive: 2.4%.
